Laboratory results taken from PMC11930079 (The Journal of Biological Chemistry, 2025).

Target: T1, BRD4 tandem bromodomains (aa 36–460), WT (human, UniProt O60885 36-460)
T1 construct: human BRD4, tandem bromodomains BD1 and BD2 with the linker between them, residues 36-460; The His6 tag is named for the sucrose gradient assay; also called BRD4 WT construct; WT BRD4 tandem bromodomains; source: recombinantly purified
Assay: ITC; VP-ITC; 0.4 mM peptide injected into the cell with 10 uM BRD4 (aa 36-460); 25 mM Hepes pH 7.5, 150 mM NaCl, 2% v/v glycerol
Conditions: both partners purified

SGRGKGGKGLGKGGAY (acetyl-lysine at K5 and K12) [H4K5/12-diacetyl peptide]
Kd: ~200 µM
